Measurements as given in US20240400670A1 (JIANGSU HENGRUI PHARMACEUTICALS, published 2024).

T1: human IL-23 (Sino Biological, CT048-H08H) (human, UniProt Q9NPF7 20-189; P29460 23-328)
T1 sequence (looked up) 1: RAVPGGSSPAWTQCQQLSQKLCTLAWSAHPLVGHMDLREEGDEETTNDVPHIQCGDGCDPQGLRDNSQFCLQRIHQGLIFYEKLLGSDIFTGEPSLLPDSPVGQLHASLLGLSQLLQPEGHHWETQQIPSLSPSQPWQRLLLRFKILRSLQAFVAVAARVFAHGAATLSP
T1 sequence (looked up) 2: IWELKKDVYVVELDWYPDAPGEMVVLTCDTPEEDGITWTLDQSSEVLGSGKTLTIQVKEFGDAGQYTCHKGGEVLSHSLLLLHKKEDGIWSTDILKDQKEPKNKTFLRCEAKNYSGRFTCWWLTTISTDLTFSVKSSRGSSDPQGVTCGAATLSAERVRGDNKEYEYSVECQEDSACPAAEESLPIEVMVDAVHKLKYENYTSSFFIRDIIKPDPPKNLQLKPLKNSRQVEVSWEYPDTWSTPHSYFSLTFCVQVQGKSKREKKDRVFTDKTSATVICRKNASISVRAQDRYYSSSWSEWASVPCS

T2: IL-23 (R&D Systems, 1290-IL-010) (UniProt Q9NPF7 20-189; P29460 23-328)
T2 sequence (looked up) 1: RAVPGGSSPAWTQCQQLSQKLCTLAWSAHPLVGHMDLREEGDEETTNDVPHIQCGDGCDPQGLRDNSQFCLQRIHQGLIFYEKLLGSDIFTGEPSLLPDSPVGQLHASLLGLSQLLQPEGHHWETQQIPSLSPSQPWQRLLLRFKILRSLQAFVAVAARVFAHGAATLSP
T2 sequence (looked up) 2: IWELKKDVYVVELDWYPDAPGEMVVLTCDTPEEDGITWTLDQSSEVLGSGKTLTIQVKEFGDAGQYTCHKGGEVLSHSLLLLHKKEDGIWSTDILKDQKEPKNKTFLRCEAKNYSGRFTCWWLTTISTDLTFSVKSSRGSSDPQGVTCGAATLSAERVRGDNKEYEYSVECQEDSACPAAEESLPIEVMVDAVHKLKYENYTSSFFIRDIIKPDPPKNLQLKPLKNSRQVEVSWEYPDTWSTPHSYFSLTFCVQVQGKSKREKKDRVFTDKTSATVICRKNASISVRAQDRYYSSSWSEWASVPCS


Experiments:
[1] = target: T1, human IL-23 (Sino Biological, …); assay: cell-based or functional assay
[2] = target: T1, human IL-23 (Sino Biological, …); assay: SPR (Biacore), Protein A capture of sample, 1:1 model
Procedure: A certain amount of test sample was subjected to affinity capture by a biosensor chip Protein A (GE, 29127556), and then antigens at a series of concentration gradients were allowed to flow on the surface of the chip. The reaction signals were detected in real time by using Biacore (GE, 8 K) to obtain association and dissociation curves. After the dissociation was completed for each cycle, the biochip was washed and regenerated with a 10 mM glycine-hydrochloric acid solution at pH 1.5 (GE, BR-1003-54). Fitting was performed based on the experimental data using BlAevaluation version 4.1 software with a 1:1 model, and affinity values were obtained. The relevant antigen proteins used in this assay are as follows: human IL-23 (Sino biological, CT048-H08 H), human BAFF (Sino biological, 10056-FINCH), human APRIL (R&D Systems, 5860-AP-010/ CF), cynomolgus monkey IL-23 (Acro Biosystems, ILB-CM52 W8), cynomolgus monkey BAFF (Kactus, BAF-CM412), cynomolgus monkey APRIL (Kactus, APR-CM410 B), mouse IL-23 (R&D Systems, 1887-ML/CF), mouse BAFF (Acro Biosystems, BAF-M521 y), and mouse APRIL (R&D Systems, 7907-AP/CF).

[3] = target: T1, human IL-23 (Sino Biological, …); assay: competition ELISA, blocks IL-23/IL-23R; IL-23R coated, biotin-IL-23 + sample gradient
Procedure: The blocking activity of the anti-IL23 antibodies and the fusion proteins thereof for receptors and ligands of IL-23/ IL-23R, BAFF/BAFF-R, BAFF/BCMA, BAFF/TACI, APRIL/BCMA, APRIL/TACI and the like was detected by Elisa. The specific procedures are as follows:
The receptor protein was diluted to 2 μg/mL with a PBS (BasalMedia, B320) buffer at pH 7.4 and added to a 96-well microplate (Corning, 3590) at 100 μL/well. The plate was incubated at 4° C. overnight. After the liquid was discarded, 1 % Casein blocking solution (Thermo, 37528) was added at 200 μL/well for blocking, and the plate was incubated at 37° C. for 2 h. After the blocking was complete, the blocking solution was discarded, and the plate was washed 3 times with a PBST buffer (pH 7.4 PBS containing 0.1 % tween-20) for later use. After the biotin-labeled ligand protein at a fixed concentration was mixed with an antibody or fusion protein diluted in a gradient, the mixture was pre-incubated at 37° C. for 30 min and then added to the blocked microplate. The plate was incubated at 37° C. for 1.5 h. After the incubation was complete, the plate was washed 3 times with PBST. Streptavidin-HRP (Invitrogen, 434323, diluted at 1:4000) was added at 100 μL/well, and the plate was incubated at 37° C. for 1 h. The supernatant was removed. After the plate was washed 3 times with PBST, TMB chromogenic substrate (KPL, 5120-0077) was added at 100 μL/well, and the plate was incubated at room temperature for 10⁻¹⁵ min. 1 M H₂SO₄ was added at 50 μL/well to terminate the reaction. The absorbance values at 450 nm were taken using a microplate reader. Curves for the inhibition of binding of the ligands to the receptors were fitted using software, and the IC₅₀ values were calculated. The source information of the ligand proteins used in this test example is as follows: IL-23 (Sino Biological, CT048-H08 H), BAFF (Sino Biological, 10056-HNCH), APRIL (R&D Systems, 5860-AP-010/ CF).

[4] = target: T2, IL-23 (R&D Systems, 1290-IL-010); assay: cell-based or functional assay
[5] = target: T1, human IL-23 (Sino Biological, …); assay: ELISA, sample coated, IL-23 titrated, anti-His-HRP
Procedure: The binding activity of the test molecules for IL-23 p19 and BAFF was measured by Elisa (coating the test molecules). The specific procedures are as follows:
The test sample was diluted to 2 μg/mL with a PBS (BasalMedia, B320) buffer at pH 7.4 and added to a 96-well microplate (Coming, 3590) at 100 μL/well. The plate was incubated at 4° C. overnight. After the liquid was discarded, 5 % skim milk (BD, 232100) diluted with PBS was added at 300 μL/well for blocking, and the mixture was incubated at 37° C. for 2 h. After the blocking was completed, the blocking solution was discarded, and the plate was washed 3 times with a PBST buffer (pH 7.4, PBS containing 0.1 % tween-20). The IL-23 (Sino Biological, CT048-H08 H) or BAFF (ACROBiosystems, BAF-H52 D4) solution diluted in a gradient was added at 100 pt/well, and the mixture was incubated at 37° C. for 1 h. After the incubation, the plate was washed 3 times with PBST. When the binding to IL-23 and BAFF was to be detected, Anti-His-HRP (Sino biological, 105327-MM02 T-H, diluted at 1:2000) was added at 100 μL/well, and the mixture was incubated at 37° C. for 1 h. […] The absorbance values at 450 nm were taken using a microplate reader. The binding curves of antibodies to antigens were fitted using software, and the EC₅₀ values were calculated.

| Activity in inhibiting proliferation of BaF3-IL-23R cells (IC50, nM) [1] | Kd [2] | koff [2] | kon [2] | IC50 [3] | IC50 for inhibiting IL-17 secretion [4] | EC50 [5] | Binder |
| --- | --- | --- | --- | --- | --- | --- | --- |
| 0.118 nM | 0.0226 nM | 8.57e-05 s⁻¹ | 3.79e+06 M⁻¹ s⁻¹ |  |  |  | Hu29-23 (antibody, human IgG1, kappa, L234A L235A, humanized mAb29, IgG1/kappa) heavy: not shown light: DIVLTQSPDSLAVSLGERATINCRASESVDYYGISSMHWFQQKPGQPPKLLIYRASNLESGIPARFSGSGSRTDFTLTISSLQAEDVAVYYCQQANKDPYTFGGGTKVEIKRTVAAPSVFIFPPSDEQLKSGTASVVCLLNNFYPREAKVQWKVDNALQSGNSQESVTEQDSKDSTYSLSSTLTLSKADYEKHKVYACEVTHQGLSSPVTKSFNRGEC |
| 0.216 nM | 0.0223 nM | 7.02e-05 s⁻¹ | 3.15e+06 M⁻¹ s⁻¹ | 0.41 nM | 0.0195 nM | 1.19 nM | Hu29-15 (antibody, human IgG1, kappa, L234A L235A, humanized mAb29, IgG1/kappa) heavy: not shown light: DIVLTQSPDSLAVSLGERATINCRASESVDYYGISSMHWFQQKPGQPPKLLIYRASNLESGIPARFSGSGSRTDFTLTISSLQAEDVAVYYCQQANKDPYTFGGGTKVEIKRTVAAPSVFIFPPSDEQLKSGTASVVCLLNNFYPREAKVQWKVDNALQSGNSQESVTEQDSKDSTYSLSSTLTLSKADYEKHKVYACEVTHQGLSSPVTKSFNRGEC |
| 0.225 nM | 0.0183 nM | 7.99e-05 s⁻¹ | 4.36e+06 M⁻¹ s⁻¹ |  |  |  | Hu29-16 (antibody, human IgG1, kappa, L234A L235A, humanized mAb29, IgG1/kappa) heavy: not shown light: DIVLTQSPDSLAVSLGQRATINCRASESVDYYGISSMHWFQQKPGQPPKLLIYRASNLESGIPARFSGSGSRTDFTLTISSLQAEDVAVYYCQQANKDPYTFGGGTKVEIKRTVAAPSVFIFPPSDEQLKSGTASVVCLLNNFYPREAKVQWKVDNALQSGNSQESVTEQDSKDSTYSLSSTLTLSKADYEKHKVYACEVTHQGLSSPVTKSFNRGEC |

The remaining lines, values behind:

| Binder | Activity in inhibiting proliferation of BaF3-IL-23R cells (IC50, nM) [1] | Kd [2] | koff [2] | kon [2] | IC50 [3] | IC50 for inhibiting IL-17 secretion [4] | EC50 [5] |
| --- | --- | --- | --- | --- | --- | --- | --- |
| Hu29-10 (antibody, human IgG1, kappa, L234A L235A, V domains shown, humanized mAb29, IgG1/kappa) VH: EVTLKESGPVLVKPTETLTLTCTVSGFSLTSYAISWVRQPPGKALEWLGVIWTGGGTNYNSGIKSRLTISKDNSKSQVVLTMTNMDPVDTARYYCVREGDYGSYAGAMDYWGQGTTVTVSS VL: DIVLTQSPDSLAVSLGERATINCRASESVDYYGISSMHWFQQKPGQPPKLLIYRASNLESGIPDRFSGSGSRTDFTLTISSLQAEDVAVYYCQQANKDPYTFGGGTKVEIKR | 0.086 nM | 0.0239 nM | 8.7e-05 s⁻¹ | 3.65e+06 M⁻¹ s⁻¹ | 0.424 nM |  |  |
| Hu29-9 (antibody, human IgG1, kappa, L234A L235A, V domains shown, humanized mAb29, IgG1/kappa) VH: EVTLKESGPVLVKPTETLTLTCTVSGFSLTSYAISWVRQPPGKALEWLGVIWTGGGTNYNSGIKSRLTISKDNSKSQVVLTMTNMDPVDTARYYCVREGDYGSYAGAMDYWGQGTTVTVSS VL: DIVMTQSPDSLAVSLGERATINCRASESVDYYGISSMHWFQQKPGQPPKLLIYRASNLESGVPDRFSGSGSRTDFTLTISSLQAEDVAVYYCQQANKDPYTFGGGTKVEIKR | 0.0561 nM | 0.0304 nM | 0.000106 s⁻¹ | 3.48e+06 M⁻¹ s⁻¹ | 0.397 nM |  |  |
| Hu29-1 (antibody, human IgG1, kappa, L234A L235A, V domains shown, humanized mAb29, IgG1/kappa) VH: EVTLKESGPVLVKPTETLTLTCTVSGFSLSSYAISWIRQPPGKALEWLGVIWTGGGTNYNSGIKSRLTISKDTSKSQVVLTMTNMDPVDTATYYCVREGDYGSYAGAMDYWGQGTTVTVSS VL: DIVMTQSPDSLAVSLGERATINCRASESVDYYGISSMHWFQQKPGQPPKLLIYRASNLESGVPDRFSGSGSRTDFTLTISSLQAEDVAVYYCQQANKDPYTFGGGTKVEIKR | 0.0711 nM | 0.0393 nM | 0.000133 s⁻¹ | 3.39e+06 M⁻¹ s⁻¹ | 0.474 nM |  |  |
| Hu29-2 (antibody, human IgG1, kappa, L234A L235A, V domains shown, humanized mAb29, IgG1/kappa) VH: EVTLKESGPVLVKPTETLTLTCTVSGFSLSSYAISWIRQPPGKALEWLGVIWTGGGTNYNSGIKSRLTISKDTSKSQVVLTMTNMDPVDTATYYCVREGDYGSYAGAMDYWGQGTTVTVSS VL: DIVLTQSPDSLAVSLGERATINCRASESVDYYGISSMHWFQQKPGQPPKLLIYRASNLESGIPDRFSGSGSRTDFTLTISSLQAEDVAVYYCQQANKDPYTFGGGTKVEIKR | 0.0623 nM | 0.0308 nM | 0.000108 s⁻¹ | 3.51e+06 M⁻¹ s⁻¹ | 0.397 nM |  |  |
| Hu29-6 (antibody, human IgG1, kappa, L234A L235A, V domains shown, humanized mAb29, IgG1/kappa) VH: EVTLKESGPVLVKPTETLTLTCTVSGFSLTSYAISWIRQPPGKALEWLGVIWTGGGTNYNSGIKSRLTISKDNSKSQVVLTMTNMDPVDTATYYCVREGDYGSYAGAMDYWGQGTTVTVSS VL: DIVLTQSPDSLAVSLGERATINCRASESVDYYGISSMHWFQQKPGQPPKLLIYRASNLESGIPDRFSGSGSRTDFTLTISSLQAEDVAVYYCQQANKDPYTFGGGTKVEIKR | 0.089 nM | 0.0255 nM | 9.85e-05 s⁻¹ | 3.86e+06 M⁻¹ s⁻¹ | 0.437 nM |  |  |
| Hu29-5 (antibody, human IgG1, kappa, L234A L235A, V domains shown, humanized mAb29, IgG1/kappa) VH: EVTLKESGPVLVKPTETLTLTCTVSGFSLTSYAISWIRQPPGKALEWLGVIWTGGGTNYNSGIKSRLTISKDNSKSQVVLTMTNMDPVDTATYYCVREGDYGSYAGAMDYWGQGTTVTVSS VL: DIVMTQSPDSLAVSLGERATINCRASESVDYYGISSMHWFQQKPGQPPKLLIYRASNLESGVPDRFSGSGSRTDFTLTISSLQAEDVAVYYCQQANKDPYTFGGGTKVEIKR | 0.0553 nM | 0.0367 nM | 0.000125 s⁻¹ | 3.4e+06 M⁻¹ s⁻¹ | 0.388 nM |  |  |
